Molecular target: Phosphatidylinositol 4,5-bisphosphate 3-kinase catalytic subunit beta isoform (Homo sapiens, UniProt P42338)
Test: Inhibition of human recombinant His6-tagged PI3K p110beta expressed in baculovirus using DiC8-PI(4,5)P2 as substrate after 20 mins by AlphaScreen assay
How it was run: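 Values are the mean of at least two experiments. Experimental error was within 20% of the value.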

Amino acid sequences for entries named in this document (tags omitted). A change or cut given only in a name is not applied to a line headed by its entry.
UniProt P42338: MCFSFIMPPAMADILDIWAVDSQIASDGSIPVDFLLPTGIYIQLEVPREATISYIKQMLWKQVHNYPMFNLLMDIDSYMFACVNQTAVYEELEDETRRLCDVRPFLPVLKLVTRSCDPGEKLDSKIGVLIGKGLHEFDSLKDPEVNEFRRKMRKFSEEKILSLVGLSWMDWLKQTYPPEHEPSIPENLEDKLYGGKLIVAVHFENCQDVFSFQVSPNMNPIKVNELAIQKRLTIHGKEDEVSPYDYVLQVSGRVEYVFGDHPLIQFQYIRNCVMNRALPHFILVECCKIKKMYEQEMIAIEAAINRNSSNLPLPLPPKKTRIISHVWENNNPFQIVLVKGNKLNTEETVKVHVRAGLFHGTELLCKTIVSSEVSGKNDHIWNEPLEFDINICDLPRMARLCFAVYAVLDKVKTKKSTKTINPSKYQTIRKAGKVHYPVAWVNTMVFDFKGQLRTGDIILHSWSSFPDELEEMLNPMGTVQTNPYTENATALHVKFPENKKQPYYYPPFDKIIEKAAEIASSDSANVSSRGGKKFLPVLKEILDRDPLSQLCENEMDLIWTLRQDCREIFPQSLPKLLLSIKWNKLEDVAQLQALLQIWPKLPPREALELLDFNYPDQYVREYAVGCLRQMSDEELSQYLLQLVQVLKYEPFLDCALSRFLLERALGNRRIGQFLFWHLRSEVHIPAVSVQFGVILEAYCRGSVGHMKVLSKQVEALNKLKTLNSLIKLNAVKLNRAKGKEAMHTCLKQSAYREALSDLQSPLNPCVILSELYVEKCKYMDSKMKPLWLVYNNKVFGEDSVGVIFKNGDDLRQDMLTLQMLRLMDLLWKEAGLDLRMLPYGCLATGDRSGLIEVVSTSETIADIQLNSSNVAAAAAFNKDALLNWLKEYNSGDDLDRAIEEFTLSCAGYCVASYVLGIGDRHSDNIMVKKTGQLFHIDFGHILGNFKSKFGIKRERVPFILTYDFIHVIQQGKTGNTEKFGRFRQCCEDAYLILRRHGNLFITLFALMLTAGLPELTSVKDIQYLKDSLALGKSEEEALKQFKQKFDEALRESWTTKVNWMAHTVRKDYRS

For `Cc1cc(C(C)Nc2ccccc2)c2nc(N3CCOCC3)cc(=O)n2c1` (stereo unspecified), the IC50 was 49 nM.
